Measurements reported in US9187506B2, “(R)-3-((3S,4S)-3-fluoro-4-(4-hydroxyphenyl)piperidin-1-yl)-1-(4-methylbenzyl)pyrrolidin-2-one and its prodrugs for the treatment of psychiatric disorders” (Bristol-Meyers Squibb Company, priority 2014, dated 2015).

Amino acid sequences for entries named in this document (tags omitted). Residues count along the entry.
UniProt Q00960, 27-1482: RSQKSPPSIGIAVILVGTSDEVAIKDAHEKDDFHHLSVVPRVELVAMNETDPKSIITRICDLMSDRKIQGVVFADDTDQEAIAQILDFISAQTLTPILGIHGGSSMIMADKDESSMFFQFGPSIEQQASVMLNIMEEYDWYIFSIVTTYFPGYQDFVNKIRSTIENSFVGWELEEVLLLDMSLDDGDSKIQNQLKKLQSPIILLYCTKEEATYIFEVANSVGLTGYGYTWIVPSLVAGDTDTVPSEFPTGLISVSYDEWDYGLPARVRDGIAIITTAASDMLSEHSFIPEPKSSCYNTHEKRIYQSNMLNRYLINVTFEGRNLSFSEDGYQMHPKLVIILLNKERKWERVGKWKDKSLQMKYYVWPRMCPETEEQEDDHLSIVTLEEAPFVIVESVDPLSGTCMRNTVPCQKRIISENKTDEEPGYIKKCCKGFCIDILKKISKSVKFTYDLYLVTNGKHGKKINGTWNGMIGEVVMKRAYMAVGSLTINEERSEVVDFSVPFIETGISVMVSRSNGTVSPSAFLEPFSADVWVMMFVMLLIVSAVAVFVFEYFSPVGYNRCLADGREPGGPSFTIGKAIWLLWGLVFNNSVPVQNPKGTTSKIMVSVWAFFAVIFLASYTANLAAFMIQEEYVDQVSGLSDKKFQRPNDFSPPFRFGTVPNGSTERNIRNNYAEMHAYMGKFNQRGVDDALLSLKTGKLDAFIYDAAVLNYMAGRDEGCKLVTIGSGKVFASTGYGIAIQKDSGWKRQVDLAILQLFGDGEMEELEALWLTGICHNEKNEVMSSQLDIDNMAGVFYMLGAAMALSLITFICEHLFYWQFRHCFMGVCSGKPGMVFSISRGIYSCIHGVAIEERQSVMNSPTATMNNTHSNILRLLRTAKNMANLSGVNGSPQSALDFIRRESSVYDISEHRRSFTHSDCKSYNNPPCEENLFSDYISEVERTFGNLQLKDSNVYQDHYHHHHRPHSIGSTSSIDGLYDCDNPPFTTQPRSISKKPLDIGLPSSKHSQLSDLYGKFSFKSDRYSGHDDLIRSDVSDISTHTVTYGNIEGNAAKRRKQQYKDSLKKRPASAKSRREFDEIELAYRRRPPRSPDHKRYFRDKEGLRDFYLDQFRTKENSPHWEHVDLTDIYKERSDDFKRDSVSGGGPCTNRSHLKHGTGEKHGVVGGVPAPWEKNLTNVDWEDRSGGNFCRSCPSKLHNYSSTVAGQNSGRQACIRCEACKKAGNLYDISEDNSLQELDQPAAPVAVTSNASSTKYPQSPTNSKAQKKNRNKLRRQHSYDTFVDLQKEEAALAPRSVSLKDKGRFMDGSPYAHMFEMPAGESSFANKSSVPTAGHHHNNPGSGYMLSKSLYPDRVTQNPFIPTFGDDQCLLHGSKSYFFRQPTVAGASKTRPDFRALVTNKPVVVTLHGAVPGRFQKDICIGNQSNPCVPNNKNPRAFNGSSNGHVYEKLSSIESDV

Target: T1, NR2B-subtype NMDA receptors (Rattus norvegicus, UniProt P35439+Q00960)
T1 construct: For membrane preparation, rat forebrains were thawed on ice; from tissue; host or cells: rat forebrain membrane homogenate (Sprague Dawley, Harlan)
Assay: Radioligand binding assay (3H Ro 25-6981 competition, rat forebrain membranes)
Settings: 3H Ro 25-6981 4 nM
Description: Binding experiments to determine binding to NR2B-subtype NMDA receptors were performed on forebrains of 8-10 weeks old male Sprague Dawley rats (Harlan, Netherlands) using ^3H Ro 25-6981 (Mutel V; Buchy D; Klingelschmidt A; Messer J; Bleuel Z; Kemp J A; Richards J G. Journal of Neurochemistry, 1998, 70(5):2147-2155. Rats were decapitated without anesthesia using a Guillotine (approved by animal ethics committee) and the harvested brains were snap-frozen and stored at −80° C. for 3-6 months for membrane preparation.
For membrane preparation, rat forebrains were thawed on ice for 20 minutes in homogenization buffer composed of 50 mM KH2PO4 (pH adjusted to 7.4 with KOH), 1 mM EDTA, 0.005% Triton X 100 and protease inhibitor cocktail (Sigma Aldrich). Thawed brains were homogenized using a Dounce homogenizer and centrifuged at 48000×g for 20 min. The pellet was resuspended in cold buffer and homogenized again using a Dounce homogenizer. Subsequently, the homogenate was aliquoted, snap-frozen and stored at −80° C. for not more than 3-4 months.
To perform the competition binding assay, thawed membrane homogenate was added to each well of a 96-well plate (20 μg/well). […] The filter plates were dried at 50° C. for 20 mins, incubated with microscint 20 for 10 minutes and finally, the counts were read on TopCount (Perkin Elmer).

Compound: Cc1ccc(CN2CC[C@@H](N3CC[C@@H](c4ccc(O)cc4)[C@H](F)C3)C2=O)cc1 [example 1, (R)-3-((3S,4S)-3-fluoro-4-(4-hydroxyphenyl)piperidin-1-yl)-1-(4-methylbenzyl)pyrrolidin-2-one]
- Ki: 4 nM
